The text below walks through data of US20230054318A1, “PERSONALIZED TUMOR VACCINE AND USE THEREOF FOR CANCER IMMUNOTHERAPY” (priority 2019, published 2023).

A short description of this series: Human Equivalent Dose (HED) calculation based on body surface area. The source says: Provided herein are methods for calculating HED of the MBTA components based on body surface area.
See details from: Nair A B, Jacob S. A simple practice guide for dose conversion between animals and human. J Basic Clin Pharma 2016; 7:27-31
A formula to calculate HED is shown as follows:
HED(mg/kg)=Animal dose(mg/kg)Animal Km/Human Km

For `CCOCc1nc2c(N)nc3ccccc3c2n1CC(C)(C)O` [R-848, Resiquimod], the HED (Mouse Km=3, Human Km=37) is on record as 0.0973 mg/kg. Further, under “human”, the “HED/Safety Factor (10)” value is 0.00973 mg/kg and the “Maximum Recommended Starting Dose (MRSD, assuming 60 kg adult)” value was 0.5838 mg/day.
